Experiments:
[1] = biological target: T1, Nav 1.7 (Homo sapiens (Human), UniProt Q15858); assay: Nav 1.7 in vitro PX assay (PatchXpress whole cell voltage clamp); format: cell-based; conditions: read-out: Nav 1.7 PX IC50;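 further: holding potential set for 20 to 50% inactivation, sodium current evoked by a 20 ms step to −10 mV, peak current inhibition read after compound exposure, 3–5 cells per concentration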
[2] = biological target: T1, Nav 1.7; assay: in-vitro Nav 1.7 PX data; format: cell-based; conditions: read-out: Nav 1.7 PX IC50

The chains behind the UniProt entries cited, without tags or fusion partners.
UniProt Q15858, whole entry: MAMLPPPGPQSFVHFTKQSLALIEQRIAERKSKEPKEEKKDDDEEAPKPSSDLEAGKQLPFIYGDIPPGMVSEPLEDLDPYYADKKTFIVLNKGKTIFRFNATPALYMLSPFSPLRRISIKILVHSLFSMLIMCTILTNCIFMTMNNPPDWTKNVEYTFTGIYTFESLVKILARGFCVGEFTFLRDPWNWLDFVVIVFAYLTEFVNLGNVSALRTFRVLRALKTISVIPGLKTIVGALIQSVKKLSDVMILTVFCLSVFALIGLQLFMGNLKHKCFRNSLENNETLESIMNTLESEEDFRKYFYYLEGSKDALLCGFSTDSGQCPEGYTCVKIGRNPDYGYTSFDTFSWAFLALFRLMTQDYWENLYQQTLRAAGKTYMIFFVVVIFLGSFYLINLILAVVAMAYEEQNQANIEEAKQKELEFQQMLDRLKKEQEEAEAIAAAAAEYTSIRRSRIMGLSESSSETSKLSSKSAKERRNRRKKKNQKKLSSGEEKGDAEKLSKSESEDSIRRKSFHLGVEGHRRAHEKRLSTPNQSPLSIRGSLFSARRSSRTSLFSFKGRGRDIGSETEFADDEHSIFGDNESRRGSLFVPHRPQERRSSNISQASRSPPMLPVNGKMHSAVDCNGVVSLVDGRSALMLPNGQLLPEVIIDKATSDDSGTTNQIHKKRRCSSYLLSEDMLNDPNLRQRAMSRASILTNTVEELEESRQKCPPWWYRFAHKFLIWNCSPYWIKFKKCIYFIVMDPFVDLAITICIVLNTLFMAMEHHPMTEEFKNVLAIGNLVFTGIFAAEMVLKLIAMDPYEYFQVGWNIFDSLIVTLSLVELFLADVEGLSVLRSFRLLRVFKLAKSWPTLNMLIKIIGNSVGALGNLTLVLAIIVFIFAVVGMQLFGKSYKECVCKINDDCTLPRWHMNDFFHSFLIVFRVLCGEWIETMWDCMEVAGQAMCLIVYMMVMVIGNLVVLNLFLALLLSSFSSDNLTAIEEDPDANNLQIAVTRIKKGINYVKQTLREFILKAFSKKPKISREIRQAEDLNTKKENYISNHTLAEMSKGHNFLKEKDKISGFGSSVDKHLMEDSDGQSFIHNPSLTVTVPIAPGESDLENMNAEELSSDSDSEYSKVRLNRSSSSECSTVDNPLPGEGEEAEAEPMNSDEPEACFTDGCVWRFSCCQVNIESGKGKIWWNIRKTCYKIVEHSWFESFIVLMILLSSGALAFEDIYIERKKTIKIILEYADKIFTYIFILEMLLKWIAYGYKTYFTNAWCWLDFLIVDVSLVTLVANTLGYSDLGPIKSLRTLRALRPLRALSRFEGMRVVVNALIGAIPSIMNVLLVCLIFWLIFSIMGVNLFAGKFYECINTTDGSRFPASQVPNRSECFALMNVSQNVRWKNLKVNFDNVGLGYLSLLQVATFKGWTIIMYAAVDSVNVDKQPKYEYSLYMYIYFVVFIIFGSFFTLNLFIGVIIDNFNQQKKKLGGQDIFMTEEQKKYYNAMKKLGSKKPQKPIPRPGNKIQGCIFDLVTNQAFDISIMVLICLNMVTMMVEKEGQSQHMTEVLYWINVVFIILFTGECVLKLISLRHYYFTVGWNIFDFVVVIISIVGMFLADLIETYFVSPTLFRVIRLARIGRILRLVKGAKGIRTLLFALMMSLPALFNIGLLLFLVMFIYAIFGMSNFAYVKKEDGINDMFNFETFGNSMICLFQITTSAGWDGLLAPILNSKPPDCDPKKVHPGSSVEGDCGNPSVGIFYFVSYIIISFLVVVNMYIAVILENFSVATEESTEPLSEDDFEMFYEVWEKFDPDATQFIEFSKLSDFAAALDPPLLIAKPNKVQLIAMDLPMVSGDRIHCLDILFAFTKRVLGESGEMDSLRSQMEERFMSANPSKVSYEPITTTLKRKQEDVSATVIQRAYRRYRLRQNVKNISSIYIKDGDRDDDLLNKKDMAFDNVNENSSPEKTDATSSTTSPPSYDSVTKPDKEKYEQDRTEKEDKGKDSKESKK

`COc1cc(-c2ccc(Cl)c(C)c2)c(C)cc1-c1ncnc2cc(S(=O)(=O)Nc3ncccn3)ccc12` was tested, and the IC50 ([1]; HEK 293 cells stably transfected with human Nav1.7, PatchXpress, partially inactivated state) was 104 nM.

`COc1cc(-c2ccc(Cl)c(C)c2)c(Cl)cc1-c1ncnc2cc(S(=O)(=O)Nc3ncccn3)ccc12` showed an IC50 [1] of 87 nM.

`COc1cc(-c2cccc(C(F)(F)F)c2)c(C#N)cc1-c1nccc2cc(S(=O)(=O)Nc3ccon3)ccc12` was tested, and the IC50 [2] was 25.8 nM.
